# Experimental data published in US6344179B1, “Fluoralkenyl nortropanes” (Emory University, priority 1999, dated 2002).
# By UniProt entry, the sequences of proteins in these tests, tags left out.
# UniProt Q01959, whole entry: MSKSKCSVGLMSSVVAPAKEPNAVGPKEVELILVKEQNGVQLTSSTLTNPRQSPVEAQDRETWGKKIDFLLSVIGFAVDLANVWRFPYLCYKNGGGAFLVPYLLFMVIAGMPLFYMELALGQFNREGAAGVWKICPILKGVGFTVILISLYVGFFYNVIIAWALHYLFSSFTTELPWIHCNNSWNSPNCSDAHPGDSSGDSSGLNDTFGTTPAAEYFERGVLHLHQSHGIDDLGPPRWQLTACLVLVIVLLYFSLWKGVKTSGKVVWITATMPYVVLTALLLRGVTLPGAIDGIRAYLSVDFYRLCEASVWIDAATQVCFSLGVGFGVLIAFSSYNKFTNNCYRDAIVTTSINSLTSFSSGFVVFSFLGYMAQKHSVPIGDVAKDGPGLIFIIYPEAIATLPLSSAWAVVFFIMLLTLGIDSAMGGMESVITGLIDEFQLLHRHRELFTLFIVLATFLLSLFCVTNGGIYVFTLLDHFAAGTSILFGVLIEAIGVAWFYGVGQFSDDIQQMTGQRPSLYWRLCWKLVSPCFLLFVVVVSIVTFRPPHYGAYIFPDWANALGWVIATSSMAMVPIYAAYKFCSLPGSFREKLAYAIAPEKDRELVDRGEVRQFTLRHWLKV
# Target: T1, human DAT (Homo sapiens, UniProt Q01959)
# T1 construct: expressed in transfected cells
# Test: Competitive binding in transfected cell lines, [3H]WIN 35428
# Conditions: [3H]WIN 35428 as reference; cells transfected with human DAT
substance,measurement,value
N-((E)-4-fluorobut-2-en-1-yl)-2β-carbomethoxy-3β-phenylnortropane [6a],Ki,7.52 nM
